Earlier results on 2 substances are cited in patent publication US20090325863A1, “Somatostatin analogs and IGF-I inhibition for breast cancer prevention” (priority 2008, published 2009).

Chains of the proteins cited; added tags and fusions are not shown.
UniProt P30872, whole entry, species assumed: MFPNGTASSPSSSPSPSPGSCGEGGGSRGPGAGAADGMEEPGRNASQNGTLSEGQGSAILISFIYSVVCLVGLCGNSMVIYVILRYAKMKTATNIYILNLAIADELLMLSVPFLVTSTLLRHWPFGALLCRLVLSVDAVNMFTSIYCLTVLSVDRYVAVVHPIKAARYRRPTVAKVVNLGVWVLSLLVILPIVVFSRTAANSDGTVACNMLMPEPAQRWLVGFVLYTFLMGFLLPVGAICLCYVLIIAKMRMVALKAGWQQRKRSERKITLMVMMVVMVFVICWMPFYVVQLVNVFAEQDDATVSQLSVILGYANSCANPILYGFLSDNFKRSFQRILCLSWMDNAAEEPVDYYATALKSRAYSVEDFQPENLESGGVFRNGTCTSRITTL
UniProt P32745, whole entry, species assumed: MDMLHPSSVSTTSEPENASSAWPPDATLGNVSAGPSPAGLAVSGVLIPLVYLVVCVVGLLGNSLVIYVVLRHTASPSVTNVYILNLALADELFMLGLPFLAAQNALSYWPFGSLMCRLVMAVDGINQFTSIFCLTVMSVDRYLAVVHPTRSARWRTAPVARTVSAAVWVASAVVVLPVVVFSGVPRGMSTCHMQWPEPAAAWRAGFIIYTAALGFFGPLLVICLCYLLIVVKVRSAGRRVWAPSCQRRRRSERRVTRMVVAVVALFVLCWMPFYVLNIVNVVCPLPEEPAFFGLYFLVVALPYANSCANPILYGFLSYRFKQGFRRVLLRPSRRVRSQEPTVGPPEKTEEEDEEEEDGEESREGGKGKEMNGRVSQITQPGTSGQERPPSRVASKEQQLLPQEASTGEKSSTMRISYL
UniProt P35346, whole entry, species assumed: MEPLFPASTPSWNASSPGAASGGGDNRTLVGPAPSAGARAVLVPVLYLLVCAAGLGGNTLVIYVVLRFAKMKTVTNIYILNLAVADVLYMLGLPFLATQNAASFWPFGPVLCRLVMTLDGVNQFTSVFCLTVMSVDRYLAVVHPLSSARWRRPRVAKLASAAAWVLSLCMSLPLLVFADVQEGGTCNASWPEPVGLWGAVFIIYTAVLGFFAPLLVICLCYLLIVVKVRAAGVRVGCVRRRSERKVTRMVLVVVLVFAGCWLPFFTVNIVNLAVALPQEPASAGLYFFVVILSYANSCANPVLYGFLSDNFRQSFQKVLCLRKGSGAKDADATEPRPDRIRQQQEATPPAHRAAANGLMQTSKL
UniProt P30874, whole entry, species assumed: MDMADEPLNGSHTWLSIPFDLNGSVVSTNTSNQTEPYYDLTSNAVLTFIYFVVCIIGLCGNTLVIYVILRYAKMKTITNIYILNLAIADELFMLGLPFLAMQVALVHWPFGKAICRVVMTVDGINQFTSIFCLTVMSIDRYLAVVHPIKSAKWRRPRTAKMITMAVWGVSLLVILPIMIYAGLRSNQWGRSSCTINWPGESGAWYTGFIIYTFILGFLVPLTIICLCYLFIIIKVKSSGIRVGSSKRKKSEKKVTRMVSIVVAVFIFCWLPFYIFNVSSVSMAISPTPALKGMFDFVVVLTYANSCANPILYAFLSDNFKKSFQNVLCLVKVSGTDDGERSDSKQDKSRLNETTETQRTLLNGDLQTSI
UniProt P31391, whole entry, species assumed: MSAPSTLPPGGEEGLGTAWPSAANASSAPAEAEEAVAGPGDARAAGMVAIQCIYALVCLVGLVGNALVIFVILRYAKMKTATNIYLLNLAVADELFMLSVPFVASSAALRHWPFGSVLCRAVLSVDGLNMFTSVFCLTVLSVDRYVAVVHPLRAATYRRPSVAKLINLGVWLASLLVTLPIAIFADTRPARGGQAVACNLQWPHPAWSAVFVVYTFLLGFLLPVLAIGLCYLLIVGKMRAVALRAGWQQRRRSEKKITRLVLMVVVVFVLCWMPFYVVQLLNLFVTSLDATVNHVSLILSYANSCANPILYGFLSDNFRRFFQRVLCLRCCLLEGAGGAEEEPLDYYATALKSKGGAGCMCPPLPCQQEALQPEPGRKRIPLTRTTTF

Some targets named below: SSTR-1 (Homo sapiens, UniProt P30872); SSTR-3 (Homo sapiens, UniProt P32745); SSTR-5 (Homo sapiens, UniProt P35346); SSTR-2 (Homo sapiens, UniProt P30874); SSTR-4 (Homo sapiens, UniProt P31391).
Holding throughout (settings): cited from earlier work

Entries after “also recorded” stand apart in the source; their conditions may differ.

For the substance Octreotide, the “affinity for SSTR-1” value at SSTR-1 was “low affinity”. Further, the “affinity for SSTR-3” value at SSTR-3 was “relatively low affinity; also recorded: moderate affinity”. Besides, on SSTR-5, the “affinity for SSTR-5” value is “relatively low affinity; also recorded: moderate affinity”. Besides, the “affinity for SSTR-2” value on SSTR-2 is on record as “high affinity”. The “affinity for SSTR-4” value on SSTR-4 is recorded as “moderate affinity”.
In the case of vapreotide, the “affinity for SSTR-1” value at SSTR-1 was “low affinity”. Besides, the “affinity for SSTR-3” value at SSTR-3 is given as “relatively low affinity; also recorded: moderate affinity”. Moreover, the “affinity for SSTR-5” value at SSTR-5 is on record as “relatively low affinity; also recorded: moderate affinity”. For the same substance, the “affinity for SSTR-2” value at SSTR-2 is “high affinity”. The “affinity for SSTR-4” value at SSTR-4 is listed as “moderate affinity”.
